Assay results: patent US20110098180A1, “Herbicide-Resistant Plants, And Polynucleotides And Methods For Providing Same” (United States Department of Agriculture, priority 2002, published 2011)

Chains of the proteins cited; added tags and fusions are not shown. Residues count along the entry.
UniProt Q66PY0, 1-580 L542R: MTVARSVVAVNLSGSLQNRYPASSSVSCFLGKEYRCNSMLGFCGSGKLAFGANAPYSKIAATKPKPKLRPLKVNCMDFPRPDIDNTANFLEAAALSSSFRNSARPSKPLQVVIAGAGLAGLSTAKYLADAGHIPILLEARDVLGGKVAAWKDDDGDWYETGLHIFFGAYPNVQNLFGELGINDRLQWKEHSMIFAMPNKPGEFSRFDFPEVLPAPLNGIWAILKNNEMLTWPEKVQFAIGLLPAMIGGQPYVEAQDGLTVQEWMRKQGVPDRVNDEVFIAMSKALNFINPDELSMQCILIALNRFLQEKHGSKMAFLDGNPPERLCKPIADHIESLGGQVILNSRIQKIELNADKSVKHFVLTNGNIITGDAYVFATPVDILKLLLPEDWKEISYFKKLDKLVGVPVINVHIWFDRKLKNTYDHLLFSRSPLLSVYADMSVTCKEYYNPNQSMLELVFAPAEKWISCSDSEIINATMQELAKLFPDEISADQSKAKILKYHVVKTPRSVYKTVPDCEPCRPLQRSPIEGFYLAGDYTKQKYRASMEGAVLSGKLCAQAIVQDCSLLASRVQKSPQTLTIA
UniProt Q66PY0, 1-580 V509G: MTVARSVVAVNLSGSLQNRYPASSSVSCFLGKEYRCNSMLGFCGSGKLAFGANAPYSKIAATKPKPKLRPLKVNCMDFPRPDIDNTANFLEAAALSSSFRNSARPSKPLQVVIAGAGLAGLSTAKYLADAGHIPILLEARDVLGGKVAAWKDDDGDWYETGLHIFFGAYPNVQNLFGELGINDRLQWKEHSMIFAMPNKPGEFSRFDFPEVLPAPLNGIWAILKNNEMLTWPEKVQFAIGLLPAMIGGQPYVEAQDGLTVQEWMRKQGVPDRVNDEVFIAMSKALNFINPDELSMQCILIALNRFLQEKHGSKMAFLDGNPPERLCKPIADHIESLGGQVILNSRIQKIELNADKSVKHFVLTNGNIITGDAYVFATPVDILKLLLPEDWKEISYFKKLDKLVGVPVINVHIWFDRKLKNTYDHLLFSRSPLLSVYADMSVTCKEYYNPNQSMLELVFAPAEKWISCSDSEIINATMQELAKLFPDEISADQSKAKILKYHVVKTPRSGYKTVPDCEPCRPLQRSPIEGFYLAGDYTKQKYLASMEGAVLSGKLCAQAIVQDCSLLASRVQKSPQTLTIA
UniProt Q66PY0, 1-580 L425P: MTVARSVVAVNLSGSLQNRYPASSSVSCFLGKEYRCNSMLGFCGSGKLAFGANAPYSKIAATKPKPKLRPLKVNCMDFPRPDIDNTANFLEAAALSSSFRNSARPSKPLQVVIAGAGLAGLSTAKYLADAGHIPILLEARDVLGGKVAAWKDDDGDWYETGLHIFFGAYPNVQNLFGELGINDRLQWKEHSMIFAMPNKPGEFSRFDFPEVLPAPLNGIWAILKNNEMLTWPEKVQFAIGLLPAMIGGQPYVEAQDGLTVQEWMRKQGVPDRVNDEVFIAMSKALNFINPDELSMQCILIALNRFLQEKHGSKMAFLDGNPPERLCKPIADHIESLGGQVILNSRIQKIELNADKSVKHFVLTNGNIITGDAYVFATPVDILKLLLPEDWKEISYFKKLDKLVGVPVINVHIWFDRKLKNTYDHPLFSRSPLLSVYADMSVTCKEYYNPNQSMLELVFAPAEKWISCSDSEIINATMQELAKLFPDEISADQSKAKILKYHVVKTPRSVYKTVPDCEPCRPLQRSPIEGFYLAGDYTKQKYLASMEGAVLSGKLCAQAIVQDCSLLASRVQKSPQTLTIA
UniProt Q66PY0, 77-580: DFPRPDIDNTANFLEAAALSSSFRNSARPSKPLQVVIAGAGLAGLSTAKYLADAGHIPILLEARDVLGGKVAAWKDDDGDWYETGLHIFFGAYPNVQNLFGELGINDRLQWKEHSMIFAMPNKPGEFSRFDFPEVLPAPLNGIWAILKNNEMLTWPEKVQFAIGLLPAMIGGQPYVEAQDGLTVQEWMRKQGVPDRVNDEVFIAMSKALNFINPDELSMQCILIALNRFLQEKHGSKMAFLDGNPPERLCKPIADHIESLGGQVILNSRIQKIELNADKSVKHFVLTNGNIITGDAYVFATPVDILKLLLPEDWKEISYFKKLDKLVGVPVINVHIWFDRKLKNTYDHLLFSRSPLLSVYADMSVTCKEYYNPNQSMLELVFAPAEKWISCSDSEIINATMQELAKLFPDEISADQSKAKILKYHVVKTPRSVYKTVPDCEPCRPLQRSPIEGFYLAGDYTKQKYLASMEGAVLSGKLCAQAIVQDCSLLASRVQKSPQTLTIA

What was measured:
Assay type in all cases: biochemical
[1] = biological target: Hydrilla PDS Leu^542 → Arg (Hydrilla verticillata, UniProt Q66PY0, L542R); test: Fluridone enzyme inhibition assay, other substitutions (Table 3); details: read-out: I50
Experimental: (§1) To explore whether mutations at positions other than 304 of the hydrilla PDS enzyme and corresponding positions of other plant PDS enzymes also confer herbicide resistance, mutations discovered in Synechococcus strain PCC7942 (Leu^320→Pro; Val^403→Gly; Leu^436→Arg) were introduced into the hydrilla PDS sequence at the corresponding locations, and the resulting PDS enzymes tested for resistance.
(§2) Phytoene desaturase activity and its inhibition by herbicides was determined using an in vitro system using components derived from the in vivo production of phytoene and phytoene desaturase proteins. All mutations described in Examples 3 and 4 were tested. […] The clones were used for the heterologous expression of Hydrilla-PDS-enzyme. In particular, bacterial cultures were grown from single colonies overnight in Wu-broth (6.27 g/L K2HPO4, 1.8 g/L KH2PO4, 0.5 g/L Na-citrate, 0.9 g/L (NH4)2SO4, 10 g/L tryptone, 5 g/L yeast extract, 10 g/L NaCl, 44 ml/L glycerol, 0.1 mM MgSO4, pH 7.2) with kanamycin. 1-mL was aliquoted in centrifuge tube and stored at −80° C. For expression, 1 L LB-medium with kanamycin was inoculated with 1-mL Wu-culture and grown for 24 h at 37° C. to stationary phase with shaking at 200 rpm. The cells were collected by centrifugation at 2000×g. All of the following steps were done at 4° C. unless otherwise noted. Active soluble PDS enzyme was extracted by lysing the transformed E. coli cells using a French Press at 20,000 psi in assay buffer consisting of 100 mM Tris-HCl, pH 7.2, 10 mM magnesium-chloride, 0.1 mM NADP, 0.1 mM FAD, 10 mM cysteine, 5 mM DTT, 1 mM aminocaproic acid, and 1 μg/ml leupeptin. The soluble fraction containing PDS activity was obtained by centrifugation for 10 min at 1200×g. After 24 h they were centrifuged down and used in PDS enzyme activity assays as described below.
(§3) Generally, PDS protein fractions prepared as described above (Non-His-tagged and His-tagged) were mixed with a soluble fraction from phytoene-producing E. coli cells. […]

[2] = biological target: Hydrilla PDS Val^509 → Gly (Hydrilla verticillata, UniProt Q66PY0, V509G); test: as above; details: read-out: I50
Experimental: as §1, §2, §3

[3] = biological target: Hydrilla PDS Leu^425 → Pro (Hydrilla verticillata, UniProt Q66PY0, L425P); test: as above; details: read-out: I50
Experimental: as §1, §2, §3

[4] = biological target: hydrilla PDS position 304 Arginine, His-tagged (Hydrilla verticillata, UniProt Q66PY0); test: Cross-resistance testing, His-tagged column-purified PDS (Table 2A); details: read-out: I50, Arginine at 304
From the text: The alternative approach utilized His-tagging and column purification of the mutant PDS protins.
In order to express pds in bacteria, deletion clones were made for each of the three potential start codons with and without ATG. […] The forward primers used were ORF (5′ […] 3′), ORF-ATG (5′ […] 3′), 3_ORF (5′[…] 3′) and 3_ORF-ATG (5′ […] 3′). The resulting plasmids were named pORF, pORF-ATG (minus ATG codon), p3ORF and p3ORF-ATG. The pds-containing EcoRI-fragments of these plasmids were subcloned into the EcoRI site of pRSETb vector (Invitrogen) for Histidine tagging and bacterial expression. The resulting constructs were pHy4SET, pHy4SET-ATG (minus ATG), p3ORFSET and p3ORFSET-ATG. […]
All pRSET derived constructs were transformed into BL21(DE3)pLysS cells (Invitrogen), induced with IPTG for protein expression, and the His tag overproduced proteins analyzed by Western blot using Anti-HisG antibody (Invitrogen, cat. #R940-25). […]
His-tagged, purified proteins prepared as described above were transferred to the assay buffer on a PD10 column (Amersham Bioscience) and the concentration was adjusted to 100 μg/mL. […] I^50 values were calculated from the regressions.

Fluridone was tested. Which IC50 [1] did it give?
Its IC50 is 0.9 µM.

What about the IC50 [2] of the same substance?
The IC50 was 2.9 µM.

What about the IC50 [3] of the same substance?
Its IC50 is 0.32 µM.

And the IC50 [4]?
The IC50 was 305 µM.
